The values below come from US20080092250A1, “Activity-induced pain in animal model of osteoarthritis” (priority 2006, published 2008).

The subject of this series is rats. Particulars: i.a. administration, 3 mg, 28-day study. The procedure: All experiments have been approved by the Institutional Animal Care and Use Committee (IACUC) at Abbott Laboratories and are in strict accordance with the ethical guidelines laid down by the International Association for the Study of Pain (IASP) (Zimmermann, 1983) for the care and use of laboratory animals. […] Following injection, the animals were allowed to recover from the effects of anesthesia (usually 5-10 mins) before returning to their home cages. […] Animals were euthanized by CO2 inhalation on day 20. The injected knee joints were dissected and immediately fixed in 10% phosphate buffered formalin. The samples were then decalcified in 5% formic acid for 3 days, routinely processed and then embedded in paraffin wax. Frontal histologic sections of the femorotibial joints (6 μm) were prepared, stained with toluidine-blue and examined with a light microscope (Guzman et al., 2003).
Measurements of peak hind limb grip force were conducted by recording the maximum compressive force exerted on the hind limb strain gauge setup, in a commercially available grip force measurement system (Columbus Instruments, Columbus, Ohio). […] Additional tests were performed 1, 2, 4, 7, 10, 13, 17, 21, 24, and 28 days following the injections.

Take sodium monoiodoacetate [MIA]: the “effect on general health of the animals” value was “no effect”.
